Columns and labels:
[1] = target: T1, Aldo-keto reductase family 1 member B1 (Homo sapiens, UniProt P15121); assay: Inhibition of human recombinant AKR1B1 assessed as D,L-glyceraldehyde reduction pretreated with 0.3M DMSO followed by compound addition by DMSO-perturbation assay
[2] = target: T1, Aldo-keto reductase family 1 member B1; assay: Inhibition of human recombinant AKR1B1 assessed as D,L-glyceraldehyde reduction pretreated with 0.7M DMSO followed by compound addition by DMSO-perturbation assay
[3] = target: T1, Aldo-keto reductase family 1 member B1

IC50 [1]: 37.8 nM
IC50 [2]: 42.8 nM
IC50 [3]: 52.9 nM
SMILES: O=C(O)Cc1nn(Cc2nc3cc(C(F)(F)F)ccc3s2)c(=O)c2ccccc12 [ZOPOLRESTAT]
